Reference: PMC8041433 (Environmental Health Perspectives, 2021)
Values joined by “and” are separate entries in the source; they are usually repeats but may differ in a detail not shown here. Equal entries are not always repeated. Structures can show the parent of a compound that is named as a salt. Where two headings read alike, the source gives them in different places.

Chains of the proteins cited; added tags and fusions are not shown. Residues count along the entry.
UniProt P22303, 32-614: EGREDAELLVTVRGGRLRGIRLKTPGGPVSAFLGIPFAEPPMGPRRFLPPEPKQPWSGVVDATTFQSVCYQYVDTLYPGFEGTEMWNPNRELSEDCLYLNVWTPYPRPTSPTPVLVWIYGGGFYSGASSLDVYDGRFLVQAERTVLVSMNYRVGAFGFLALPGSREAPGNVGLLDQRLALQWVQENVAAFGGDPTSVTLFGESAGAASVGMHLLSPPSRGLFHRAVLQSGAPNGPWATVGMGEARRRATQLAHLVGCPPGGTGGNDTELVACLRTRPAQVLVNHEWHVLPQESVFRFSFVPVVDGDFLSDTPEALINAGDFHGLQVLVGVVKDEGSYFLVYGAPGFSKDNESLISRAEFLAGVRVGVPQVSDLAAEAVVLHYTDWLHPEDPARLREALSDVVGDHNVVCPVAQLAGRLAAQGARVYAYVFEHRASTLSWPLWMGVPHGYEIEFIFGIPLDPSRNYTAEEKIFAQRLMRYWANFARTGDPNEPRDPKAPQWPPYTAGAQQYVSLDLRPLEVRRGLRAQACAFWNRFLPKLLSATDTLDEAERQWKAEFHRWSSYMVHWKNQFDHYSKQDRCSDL

Legend:
[1] = target: AChE in SH-SY5Y cells (Homo sapiens, UniProt P22303); test: cell-based; type: cell-based
[2] = target: T1, recombinant human AChE (Homo sapiens, UniProt P22303); test: biochemical
[3] = target: T1, recombinant human AChE
[4] = target: T1, recombinant human AChE; test: biochemical; type: biochemical
[5] = target: AChE in neural stem cell spheroids (Homo sapiens, UniProt P22303); test: cell-based; conditions: potency (IC50)
[6] = target: AChE in SH-SY5Y spheroids (Homo sapiens, UniProt P22303); test: cell-based; conditions: potency (IC50), SH-SY5Y spheroids (48 h)
[7] = target: T1, recombinant human AChE; test: biochemical; remark: listed apart in the source
Wherever IR or R is given: key: Reversible (R); Irreversible (IR); ND, not detected in enzyme-based AChE inhibition assay from current study.

`COP(=S)(OC)SCn1nnc2ccccc2c1=O` [Azinphos-methyl] was tested, and the IC50 ([1]; IC50 (uM)) was 28.3 µM and 39.1 µM and 17.8 µM and 34.9 µM and the IC50 ([2]; IC50 (uM)) was 79.6 µM and 78.1 µM.

In the case of `CCC1(c2cccc(O)c2)CCCCN(C)C1` (stereo not shown) [Meptazinol hydrochloride, reference compound], the “CC-v2 (curve classes)” value [3] is reported as 4, the Efficacy [3] is reported as -26.331 and the “CC-v2 (curve classes)” value [1] is reported as -2.1. For the same compound, the “CC-v2 (curve classes)” value [2] was -2.1, the Efficacy [2] was -86 and the “IR or R” value [4] was “R”.

`O=C(CCC1CCN(Cc2ccccc2)CC1)c1ccc2c(c1)NCCCC2.O=C(O)/C=C/C(=O)O` [Zanapezil fumerate, reference compound] showed an IC50 ([1]; read-out: IC50) of 0.195 µM.

Compound `CCOP(=S)(Oc1ccc([N+](=O)[O-])cc1)c1ccccc1` (stereo not shown) [EPN] has an IC50 ([5]; Neural stem cell spheroid (24 h)) of 14.8 µM, an IC50 ([5]; Neural stem cell spheroid (48 h)) of 26.8 µM and an IC50 [6] of 7.88 µM. The IC50 [7] was 67 ± 19.7 µM.
